{"sequences": {"note": "Protein sequences, listed by entry. Tags and fused reporters are not part of them. Lines headed by an entry give the natural chain unless they say otherwise; changes in a name come on top.", "UniProt P56524": "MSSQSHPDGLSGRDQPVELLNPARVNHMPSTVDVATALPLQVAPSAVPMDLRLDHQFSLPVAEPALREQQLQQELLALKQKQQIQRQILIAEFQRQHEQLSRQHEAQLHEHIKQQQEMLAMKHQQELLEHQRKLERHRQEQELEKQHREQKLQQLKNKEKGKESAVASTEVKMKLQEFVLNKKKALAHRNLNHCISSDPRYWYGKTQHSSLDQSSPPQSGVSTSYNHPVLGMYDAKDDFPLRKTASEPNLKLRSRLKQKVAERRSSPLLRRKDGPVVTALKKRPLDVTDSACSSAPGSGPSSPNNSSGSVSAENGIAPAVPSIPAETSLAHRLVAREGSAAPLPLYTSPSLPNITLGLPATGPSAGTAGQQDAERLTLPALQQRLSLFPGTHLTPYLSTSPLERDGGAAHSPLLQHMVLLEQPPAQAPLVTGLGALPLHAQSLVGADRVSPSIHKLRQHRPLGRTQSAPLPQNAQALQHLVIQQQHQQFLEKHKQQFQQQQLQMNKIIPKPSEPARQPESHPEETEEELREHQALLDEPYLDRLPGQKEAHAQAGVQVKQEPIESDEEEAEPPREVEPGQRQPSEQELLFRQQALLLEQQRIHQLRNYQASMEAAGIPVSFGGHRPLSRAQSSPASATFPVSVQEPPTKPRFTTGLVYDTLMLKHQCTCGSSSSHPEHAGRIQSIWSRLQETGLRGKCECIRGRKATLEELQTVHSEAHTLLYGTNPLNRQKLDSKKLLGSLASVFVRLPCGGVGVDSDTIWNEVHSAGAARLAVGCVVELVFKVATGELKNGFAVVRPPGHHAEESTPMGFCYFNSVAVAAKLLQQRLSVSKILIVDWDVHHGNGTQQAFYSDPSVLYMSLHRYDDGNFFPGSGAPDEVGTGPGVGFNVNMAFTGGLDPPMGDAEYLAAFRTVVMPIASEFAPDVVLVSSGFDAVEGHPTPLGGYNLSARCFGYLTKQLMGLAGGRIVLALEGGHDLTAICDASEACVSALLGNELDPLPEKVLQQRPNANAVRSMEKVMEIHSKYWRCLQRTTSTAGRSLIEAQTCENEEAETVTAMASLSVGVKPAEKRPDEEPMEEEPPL"}, "source": "ChEMBL document CHEMBL4138147", "about": "“Discovery of a fluorescent probe with HDAC6 selective inhibition” (Eur J Med Chem, 2017)", "biological_target": "Histone deacetylase 4 (Homo sapiens, UniProt P56524)"}
{"smiles": "CN1CCc2c(c3ccccc3n2Cc2ccc(C(=O)NO)cc2)C1", "note": "[TUBASTATIN A]", "values": [{"measurement": "IC50", "result": "> 30", "unit": "µM"}]}
